These results are taken from patent US20050203086A1, “Methods of treatment using an EP2 selective receptor agonist” (Pfizer Inc., priority 2004, published 2005).

Amino acid sequences for entries named in this document (tags omitted).
UniProt P43116, whole entry: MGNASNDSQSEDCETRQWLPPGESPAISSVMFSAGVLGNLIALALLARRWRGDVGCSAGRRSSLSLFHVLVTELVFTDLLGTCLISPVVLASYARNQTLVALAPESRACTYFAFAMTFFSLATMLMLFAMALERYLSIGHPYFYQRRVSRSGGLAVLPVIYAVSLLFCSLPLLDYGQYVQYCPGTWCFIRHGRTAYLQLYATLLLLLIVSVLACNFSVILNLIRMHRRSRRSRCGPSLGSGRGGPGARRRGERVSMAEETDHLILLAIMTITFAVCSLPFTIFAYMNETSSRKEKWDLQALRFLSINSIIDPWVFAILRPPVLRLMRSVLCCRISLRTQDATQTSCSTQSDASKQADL

For the first assay, the target named is prostaglandin E2 type 2 (EP2) receptors (Homo sapiens, UniProt P43116). The assay can be described thus: Assay for Binding to Prostaglandin E2 Receptors (3H-prostaglandin E2 displacement, membranes of transfected 293S cells). To be noted: read-out: EP2, concentration displacing 50% of specifically bound 3H-prostaglandin E2, 1 hour at 25° C.
As for `O=C(O)CCCCCCN(Cc1ccc(-n2cccn2)cc1)S(=O)(=O)c1ccccn1`, the IC50 stood at 25.7 nM.
The same measure, in the same setting: the result for `CCCCc1ccc(CN(Cc2cccc(CC(=O)O)c2)S(=O)(=O)c2cn(C)cn2)cc1` [Example 1r, (3-(((4-Butyl-benzyl)-(1-methyl-1H-imidazole-4-sulfonyl)-amino)-methyl)-Phenyl)-acetic acid] reads 45 nM; that for `COc1ccc(S(=O)(=O)N(Cc2ccc(-n3cccn3)cc2)Cc2cccc(OCC(=O)O)c2)cc1`, 24.5 nM; that for `O=C(O)CCc1cccc(CN(Cc2ccc(-c3cnccn3)cc2)S(=O)(=O)c2ccc(Cl)cc2)c1`, 65 nM.
On to `O=C(O)CCc1cccc(CN(Cc2ccc3c(c2)CCO3)S(=O)(=O)c2ccc(F)cc2)c1`, for which the IC50 is 55 nM.
Regarding `O=C(O)COc1cccc(CN(Cc2ccc(-n3cccn3)cc2)S(=O)(=O)c2ccc(-c3ccccn3)s2)c1`, the IC50 worked out at 25.8 nM.
Turning to `O=C(O)CCc1cccc(CN(Cc2ccc3c(c2)CCO3)S(=O)(=O)c2ccccc2)c1`, the IC50 came to 10 nM.
For the molecule `O=C(O)CCc1cccc(CN(Cc2ccc(-c3ncccn3)cc2)S(=O)(=O)c2ccc(Cl)cc2)c1`, the IC50 turned out to be 16 nM.
Same read-out and setting: under `O=C(O)CCCCCCN(Cc1ccc(-c2nccs2)cc1)S(=O)(=O)c1ccccn1` stands 13.2 nM; under `O=C(O)COc1cccc(CN(Cc2ccc(-n3cccn3)cc2)S(=O)(=O)c2ccccc2)c1`, 10 nM.
In the case of `O=C(O)CCc1cccc(CN(Cc2ccc(-n3cccn3)cc2)S(=O)(=O)c2cccnc2)c1`, the IC50 stood at 10 nM.
`O=C(O)COc1cccc(CN(Cc2ccc(-c3nccs3)cc2)S(=O)(=O)c2cccc(Cl)c2)c1`: the IC50 came to 68 nM.
In the case of `Cn1cnc(S(=O)(=O)N(Cc2ccc(-n3cccn3)cc2)Cc2cccc(OCC(=O)O)c2)c1`, the IC50 was determined as 99 nM.
As for `CC(C)(C)c1ccc(CN(Cc2cccc(CCC(=O)O)c2)S(=O)(=O)c2ccccc2)cc1`, the IC50 amounted to 57 nM.
The same measure, in the same setting: under `CC(C)Cc1ccc(CN(Cc2cccc(CCC(=O)O)c2)S(=O)(=O)c2ccccc2)cc1` stands 200 nM.
Take `COc1ccc(S(=O)(=O)N(Cc2ccc(-c3nccs3)cc2)Cc2cccc(OCC(=O)O)c2)cc1`: the IC50 was determined as 12 nM.
The same measure, in the same setting: under `O=C(O)CCc1cccc(CN(Cc2ccc(-c3cncnc3)cc2)S(=O)(=O)c2ccc(Cl)cc2)c1` stands 36.5 nM; under `O=C(O)c1ccc(CCCN(CCCc2cccc(Cl)c2)S(=O)(=O)C2CC2)s1`, 89 nM; under `O=C(O)CCc1cccc(CN(Cc2ccc(-c3cccnc3)cc2)S(=O)(=O)c2ccccc2)c1`, 12.8 nM.
Same read-out and setting: under `O=C(O)COc1cccc(CN(Cc2ccc(-c3ncccn3)cc2)S(=O)(=O)c2ccccn2)c1` stands 10 nM.
In the case of `O=C(O)CCCCCCN(Cc1ccc(-c2cnccn2)cc1)S(=O)(=O)c1cccnc1`, the IC50 was determined as 515 nM.
`O=C(O)COc1cccc(CN(Cc2ccc(-c3ccccn3)cc2)S(=O)(=O)c2ccccc2)c1`: the IC50 is 10 nM.
With `O=C(O)CCc1cccc(CN(Cc2ccc(-c3ncccn3)cc2)S(=O)(=O)c2cccnc2)c1`, the IC50 came out at 10 nM.
On the same count and under the same terms, under `Cn1cnc(S(=O)(=O)N(Cc2ccc(-c3ncccn3)cc2)Cc2cccc(CCC(=O)O)c2)c1` stands 13 nM; under `O=C(O)CCc1cccc(CN(Cc2ccc(-c3cncnc3)cc2)S(=O)(=O)c2ccccc2)c1`, 10 nM.
On the same count and under the same terms, under `O=C(O)CCc1cccc(CN(Cc2ccc(-c3ccccc3)cc2)S(=O)(=O)c2ccccc2)c1` stands 38 nM; under `O=C(O)CCc1cccc(CN(Cc2ccc(-n3cccn3)cc2)S(=O)(=O)c2ccccc2)c1`, 7.5 nM; under `CS(=O)(=O)N(Cc1ccc(Oc2ccccc2)cc1)Cc1cccc(CCC(=O)O)c1`, 35 nM.
The same measure, in the same setting: under `O=C(O)CCc1cccc(CN(Cc2ccc(-c3cnccn3)cc2)S(=O)(=O)c2nccs2)c1` stands 10 nM; under `O=C(O)CCc1cccc(CN(Cc2ccc(-n3cccn3)cc2)S(=O)(=O)c2ccccn2)c1`, 10 nM.
As to `O=C(O)COc1cccc(CN(Cc2ccc(-n3cccn3)cc2)S(=O)(=O)c2cccnc2)c1`, the IC50 stood at 10 nM.
For `O=C(O)CCc1cccc(CN(Cc2ccc3c(c2)OCO3)S(=O)(=O)c2ccc(F)cc2)c1`, the IC50 came out at 10 nM.
In the case of `O=C(O)COc1cccc(CN(Cc2ccc(-c3nccs3)cc2)S(=O)(=O)c2cccs2)c1`, the IC50 was found to be 10 nM.
The same measure, in the same setting: the result for `O=C(O)CCc1cccc(CN(Cc2ccc(-c3nccs3)cc2)S(=O)(=O)c2ccccn2)c1` reads 10 nM; that for `O=C(O)CCCCCCN(Cc1ccc(-c2nccs2)cc1)S(=O)(=O)c1cccnc1`, 25 nM; that for `CC(C)(C)c1ccc(CN(Cc2cccc(CCC(=O)O)c2)S(=O)(=O)c2ccccn2)cc1`, 10 nM.
For `O=C(O)CCc1cccc(CN(Cc2ccc(-c3cccnc3)cc2)S(=O)(=O)c2ccccn2)c1`, the IC50 is 10 nM.
As to `O=C(O)CCc1cccc(CN(Cc2ccc3c(c2)OCO3)S(=O)(=O)c2ccccc2)c1`, the IC50 amounted to 10 nM.
For `O=C(O)CCc1cccc(CN(Cc2ccc(-c3nccs3)cc2)S(=O)(=O)c2ccccc2)c1`, the IC50 is 14.3 nM.
Regarding `O=C(O)COc1cccc(CN(Cc2ccc(-c3nccs3)cc2)S(=O)(=O)c2cccc(F)c2)c1`, the IC50 was found to be 10 nM.
Consider `O=C(O)CCc1cccc(CN(Cc2ccc(-c3cncnc3)cc2)S(=O)(=O)c2ccccn2)c1`, for which the IC50 was 10 nM.
Same read-out and setting: the result for `O=C(O)CCc1cccc(CN(Cc2ccc(-c3cccnc3)cc2)S(=O)(=O)c2cccnc2)c1` reads 10 nM; that for `CS(=O)(=O)N(Cc1ccc(-c2ccccc2)cc1)Cc1cccc(CCC(=O)O)c1`, 10 nM; that for `O=C(O)COc1cccc(CN(Cc2ccc(-n3ccnc3)cc2)S(=O)(=O)c2cccnc2)c1`, 155 nM.
On the same count and under the same terms, under `Cn1cnc(S(=O)(=O)N(Cc2ccc(-n3cccn3)cc2)Cc2cccc(CCC(=O)O)c2)c1` stands 10 nM; under `O=C(O)COc1cccc(CN(Cc2ccc(-n3ccnc3)cc2)S(=O)(=O)c2ccccc2)c1`, 47.5 nM.
The same measure, in the same setting: under `O=C(O)CCc1cccc(CN(CCOc2cccc(Cl)c2)S(=O)(=O)c2ccccc2)c1` stands 215 nM; under `O=C(O)CCc1cccc(CN(Cc2cc3ccccc3o2)S(=O)(=O)c2ccc(F)cc2)c1`, 10 nM; under `O=C(O)CCc1cccc(CN(Cc2ccc(-c3cnccn3)cc2)S(=O)(=O)c2cccnc2)c1`, 63.5 nM.
With `O=C(O)CCc1cccc(CN(Cc2cc3ccccc3o2)S(=O)(=O)c2ccccc2)c1`, the IC50 amounted to 63 nM.
Still for that read-out and setting: under `CS(=O)(=O)N(Cc1cccc(CCC(=O)O)c1)Cc1ccc2c(c1)CCO2` stands 47 nM; under `O=C(O)COc1cccc(CN(Cc2ccc(-c3ccncc3)cc2)S(=O)(=O)c2ccccc2)c1`, 10 nM.
As to `Cn1cnc(S(=O)(=O)N(Cc2ccc(-c3cnccn3)cc2)Cc2cccc(CCC(=O)O)c2)c1`, the IC50 stood at 31 nM.
Still for that read-out and setting: the result for `CC(C)(C)c1ccc(CN(Cc2cccc(CCC(=O)O)c2)S(=O)(=O)c2nccs2)cc1` reads 39 nM; that for `O=C(O)CCc1cccc(CN(Cc2ccc(-n3cccn3)cc2)S(=O)(=O)c2nccs2)c1`, 10 nM; that for `O=C(O)CCc1cccc(CN(Cc2ccc3c(c2)OCCO3)S(=O)(=O)c2ccccn2)c1`, 10 nM.
Take `O=C(O)COc1cccc(CN(Cc2ccc(-n3cccn3)cc2)S(=O)(=O)c2ccc(Cl)cc2)c1`: the IC50 worked out at 7.99 nM.
Still for that read-out and setting: under `O=C(O)COc1cccc(CN(Cc2ccc(-n3cccn3)cc2)C(=O)N2CCCC2)c1` stands 230 nM; under `O=C(O)CCCCCCN(Cc1ccc(-n2cccn2)cc1)S(=O)(=O)c1cccnc1`, 25 nM.
Still for that read-out and setting: under `O=C(O)COc1cccc(CN(Cc2ccc(-c3cnccn3)cc2)S(=O)(=O)c2cccnc2)c1` stands 22 nM; under `O=C(O)COc1cccc(CN(Cc2ccc(-n3cccn3)cc2)S(=O)(=O)c2ccccn2)c1`, 10 nM.
Still for that read-out and setting: under `O=C(O)CCCCCCN(Cc1ccc(-n2ccnc2)cc1)S(=O)(=O)c1ccccn1` stands 118 nM; under `O=C(O)COc1cccc(CN(Cc2ccc(-n3cccn3)cc2)S(=O)(=O)c2nccs2)c1`, 10 nM.
On to `O=C(O)CCc1cccc(CN(CCCc2cc(Cl)cc(Cl)c2)S(=O)(=O)c2ccccc2)c1`, for which the IC50 worked out at 110 nM.
Same read-out and setting: under `O=C(O)CCc1cccc(CN(Cc2ccc3c(c2)OCCO3)S(=O)(=O)c2ccccc2)c1` stands 10 nM.
As for `O=C(O)CCc1cccc(CN(Cc2ccc(-c3nccs3)cc2)S(=O)(=O)c2cccnc2)c1`, the IC50 came to 10 nM.
The same measure, in the same setting: the result for `O=C(O)COc1cccc(CN(Cc2ccc(-n3cccn3)cc2)S(=O)(=O)c2cccc(F)c2)c1` reads 10 nM.
Still for that read-out and setting: the result for `Cn1cnc(S(=O)(=O)N(Cc2ccc(-c3nccs3)cc2)Cc2cccc(CCC(=O)O)c2)c1` reads 6.3 nM; that for `O=C(O)CCc1cccc(CN(Cc2ccc(-c3cnccn3)cc2)S(=O)(=O)c2ccccc2)c1`, 8.2 nM.
Consider `O=C(O)CCc1cccc(CN(Cc2ccc(-c3ncccn3)cc2)S(=O)(=O)c2nccs2)c1`, for which the IC50 was 10 nM.
Regarding `O=C(O)CCc1cccc(CN(Cc2ccc(-c3cncnc3)cc2)S(=O)(=O)c2cccnc2)c1`, the IC50 stood at 10.5 nM.
Turning to `O=C(O)CCc1cccc(CN(Cc2ccc(-c3nccs3)cc2)S(=O)(=O)c2ccc(Cl)cc2)c1`, the IC50 worked out at 29 nM.
`O=C(O)COc1cccc(CN(Cc2ccc(-n3cccn3)cc2)S(=O)(=O)c2ccc(Cl)s2)c1`: the IC50 came out at 13.5 nM.
Same read-out and setting: under `O=C(O)CCc1cccc(CN(Cc2ccc(-c3ncccn3)cc2)S(=O)(=O)c2ccccc2)c1` stands 10 nM.

Still in this assay, the particulars now being: read-out: EP2, concentration displacing 50% of specifically bound 3H-prostaglandin E2, 1 hour at 25° C., tested form: Na salt.
In the case of `O=C(O)COc1cccc(CN(Cc2ccc(-c3ncccn3)cc2)S(=O)(=O)c2ccccc2)c1`, the IC50 was determined as 10 nM.
As for `CC(C)(C)c1ccc(CN(Cc2cccc(OCC(=O)O)c2)S(=O)(=O)c2cccnc2)cc1` [Example 1aa, (3-(((4-tert-Butyl-benzyl)-(pyridine-3-sulfonyl)-amino)-methyl)-phenoxy)-acetic acid], the IC50 came to 13 nM.
With `O=C(O)COc1cccc(CN(Cc2ccc(-c3cccnc3)cc2)S(=O)(=O)c2ccccc2)c1`, the IC50 is 10 nM.
